Data: ChEMBL document CHEMBL1133341, “ORL1 receptor ligands: structure-activity relationships of 8-cycloalkyl-1-phenyl-1,3,8-triaza-spiro[4.5]decan-4-ones” (Bioorg Med Chem Lett, 2000)

The chains behind the UniProt entries cited, without tags or fusion partners.
UniProt P33533, whole entry: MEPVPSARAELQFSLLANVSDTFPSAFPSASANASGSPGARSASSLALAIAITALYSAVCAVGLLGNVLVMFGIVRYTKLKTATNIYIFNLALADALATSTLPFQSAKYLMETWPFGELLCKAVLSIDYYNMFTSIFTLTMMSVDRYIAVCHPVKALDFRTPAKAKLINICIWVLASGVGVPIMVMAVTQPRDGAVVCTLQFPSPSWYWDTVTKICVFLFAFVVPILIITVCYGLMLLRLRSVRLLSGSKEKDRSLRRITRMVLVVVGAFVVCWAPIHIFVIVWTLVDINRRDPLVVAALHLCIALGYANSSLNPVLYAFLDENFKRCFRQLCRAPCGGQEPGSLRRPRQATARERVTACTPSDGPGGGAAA
UniProt P35370, whole entry: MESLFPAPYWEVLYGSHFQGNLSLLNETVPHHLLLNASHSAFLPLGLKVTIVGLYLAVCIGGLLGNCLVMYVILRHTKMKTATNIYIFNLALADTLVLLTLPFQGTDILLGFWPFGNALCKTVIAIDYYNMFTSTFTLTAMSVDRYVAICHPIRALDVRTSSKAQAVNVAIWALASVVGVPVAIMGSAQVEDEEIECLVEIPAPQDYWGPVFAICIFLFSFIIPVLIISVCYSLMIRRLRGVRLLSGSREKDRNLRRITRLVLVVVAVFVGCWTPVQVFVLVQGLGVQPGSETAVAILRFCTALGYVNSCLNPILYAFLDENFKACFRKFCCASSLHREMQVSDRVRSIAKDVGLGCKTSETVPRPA
UniProt P34975, whole entry: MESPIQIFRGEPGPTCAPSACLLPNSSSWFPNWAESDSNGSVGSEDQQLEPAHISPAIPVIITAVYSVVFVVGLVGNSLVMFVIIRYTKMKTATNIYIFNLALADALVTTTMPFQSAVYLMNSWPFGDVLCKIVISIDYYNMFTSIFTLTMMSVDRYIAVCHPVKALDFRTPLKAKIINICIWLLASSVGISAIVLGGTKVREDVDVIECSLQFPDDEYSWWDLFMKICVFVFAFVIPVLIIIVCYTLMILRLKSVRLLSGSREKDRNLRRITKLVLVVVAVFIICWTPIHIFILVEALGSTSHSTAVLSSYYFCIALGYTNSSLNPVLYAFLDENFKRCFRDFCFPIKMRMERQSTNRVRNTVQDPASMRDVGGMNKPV
UniProt P33535, whole entry: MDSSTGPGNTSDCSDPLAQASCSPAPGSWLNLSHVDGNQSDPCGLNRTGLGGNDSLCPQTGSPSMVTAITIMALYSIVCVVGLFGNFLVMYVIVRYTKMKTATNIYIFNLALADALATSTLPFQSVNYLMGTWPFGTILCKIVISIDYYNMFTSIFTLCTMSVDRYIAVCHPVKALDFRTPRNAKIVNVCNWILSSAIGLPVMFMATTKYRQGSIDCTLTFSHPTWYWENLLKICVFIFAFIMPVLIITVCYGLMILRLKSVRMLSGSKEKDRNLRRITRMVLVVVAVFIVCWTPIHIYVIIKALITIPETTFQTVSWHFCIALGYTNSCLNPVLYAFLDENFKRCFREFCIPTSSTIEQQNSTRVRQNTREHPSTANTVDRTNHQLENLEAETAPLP

How the values were obtained:
[1] = target: Delta-type opioid receptor (Rattus norvegicus, UniProt P33533); assay: Inhibition against binding of radioligand [Ile5,6-3H]-deltorphin to membrane from baby hamster kidney cells infected with forest virus encoding the cDNAs for rat Opioid receptor delta 1
Nociceptin receptor [2] = target: T1, Nociceptin receptor (Rattus norvegicus, UniProt P35370); assay: Inhibition against binding of radioligand [leucyl-3H]-OFQ to membrane of human embryonic kidney 293 cells overexpressing rat Opioid receptor like 1; conditions: hek293
[3] = target: Kappa-type opioid receptor (Rattus norvegicus, UniProt P34975); assay: Inhibition against binding of radioligand [N-allyl-2-3-3H]-naloxone to membrane of baby hamster kidney cells infected with forest virus encoding the cDNAs for rat Opioid receptor kappa 1
Mu-type opioid receptor = Mu-type opioid receptor (Rattus norvegicus, UniProt P33535); assay: Inhibition against binding of radioligand [N-allyl-2-3-3H]-naloxone to membrane of baby hamster kidney cells infected with forest virus encoding the cDNAs for rat Opioid receptor mu 1
Nociceptin receptor [4] = target: T1, Nociceptin receptor; assay: pEC50 for its effect on stimulating GTPgammaS binding to membranes of HEK 293 cells overexpressing rat ORL-1 receptor; conditions: hek293

Compound | Ki [1] [nM] | Ki (Nociceptin receptor [2]) [nM] | Ki [3] [nM] | Ki (Mu-type opioid receptor) [nM] | Log EC50 (Nociceptin receptor [4])
O=C1NCN(c2ccccc2)C12CCN(C1CCCCCCCC1)CC2 | > 200 | 0.24 | 3.9 | 3.2 | 
O=C1NCN(c2ccccc2)C12CCN(C1CCCCCCCCCCC1)CC2 | 570 | 0.95 | 2.9 | 0.28 | 
CCC[C@H]1CC[C@@H](N2CCC3(CC2)C(=O)NCN3c2ccccc2)CC1 | > 540 | 2 | 57 | 7.3 | 
O=C1NCN(c2ccccc2)C12CCN(C1CCCCCCCCCC1)CC2 | 15 | 0.49 | 0.82 | 0.21 | 
O=C1NCN(c2ccccc2)C12CCN([C@H]1CC[C@H](C3CCCCC3)CC1)CC2 |  | 320 |  |  | 
CC(C)[C@H]1CC[C@H](N2CCC3(CC2)C(=O)NCN3c2ccccc2)CC1 | 670 | 4.6 | 31 | 8.3 | 
O=C1NCN(c2ccccc2)C12CCN(C1CCCCCCC1)CC2 | > 200 | 1.9 | 9.1 | 13 | 
O=C1NCN(c2ccccc2)C12CCN([C@H]1CC[C@@H](C3CCCCC3)CC1)CC2 | 330 | 1.5 | 29 | 1.5 | 
CC(C)(C)[C@H]1CC[C@H](N2CCC3(CC2)C(=O)NCN3c2ccccc2)CC1 |  | 12 |  |  | 
O=C1NCN(c2ccccc2)C12CCN(C1CCCCCCCCCCCCCC1)CC2 |  | 600 |  |  | 
CC(C)[C@H]1CC[C@@H](N2CCC3(CC2)C(=O)NCN3c2ccccc2)CC1 | 242 | 0.079 | 26 | 3.2 | -7.42
O=C1NCN(c2ccccc2)C12CCN([C@@H]1Cc3cccc4cccc1c34)CC2 | 100 |  | 20 | 4 | 
CCC[C@H]1CC[C@H](N2CCC3(CC2)C(=O)NCN3c2ccccc2)CC1 |  | 52 |  |  | 
O=C1NCN(c2ccccc2)C12CCN(C1CCCCCCCCC1)CC2 | 46 | 0.082 | 2.1 | 0.66 | -7.9
CC(C)(C)[C@H]1CC[C@@H](N2CCC3(CC2)C(=O)NCN3c2ccccc2)CC1 | 450 | 3.3 | 38 | 6.7 | 
